In US20240376218A1 (published 2024):

Biological target: human CCR8 (human, UniProt P51685)
Assay: cell-based or functional assay

ADCP Max Response (%), Incucyte live-imaging; human CCR8-HEK target cells, M2c macrophages as effector cells: 10.9%
B1: TPP-27478 (antibody, human IgG1, lambda)
heavy: EVQLLESGGGLVQPGGSLRLSCAASGFTFSSYGMHWVRQAPGKGLEWVSAINWNGGSTGYADSVKGRFTISRDNSKNTLYLQMNSLRAEDTAVYYCARGHHSGYDGRFFDYWGQGTLVTVSSASTKGPSVFPLAPSSKSTSGGTAALGCLVKDYFPEPVTVSWNSGALTSGVHTFPAVLQSSGLYSLSSVVTVPSSSLGTQTYICNVNHKPSNTKVDKKV[here human IgG1 Fc without letters]
light: QSVLTQPPSASGAPGQRVTISCTGSSSNIGAGYNVHWYQQLPGTAPKLLIYTNNRRPSGVPDRFSGSKSGTSASLAISGLRSEDEADYYCAAWDASLSGWVFGGGTKLTVLGQPKAAPSVTLFPPSSEELQANKATLVCLISDFYPGAVTVAWKADSSPVKAGVETTTPSKQSNNKYAASSYLSLTPEQWKSHRSYSCQVTHEGSTVEKTVAPTECS
